Test results reported in patent US20240366649A1, “4-ETHYNYL-3-HYDROXY-TETRAHYDROFURANYL-ADENINE PHOSPHORAMIDATES AND RELATED COMPOUNDS AND THEIR USE IN TREATING MEDICAL CONDITIONS” (ROME THERAPEUTICS, INC., priority 2021, published 2024).

Tested on: IFN production in THP1 TREX1 KO cells
Assay: Cellular assay for altering IFN production in THP1 TREX1 KO cells
Conditions: for Maximum IFN Induction: maximum-fold IFN induction, 1 μM 5-aza-2′-deoxycytidine, five days
Method: THP1-Dual™ KO-TREX1 cells were purchased from Invivogen (cat #thpd-kotrex). The THP1-Dual™ KO-TREX1 cells were cultured in RPMI 1640, 10% heat-inactivated fetal bovine serum, 25 mM HEPES, 10 μg/mL Blasticidin, and […] Zeocin. THP1-Dual™ KO-TREX cells were treated with a dose titration of test compound in the presence of 1 μM 5-aza-2′-deoxycytidine (Sigma, cat #189825). Type 1 Interferon and cell viability were assessed after five days of treatment.
Stock solution of test compound was prepared in DMSO followed by a three-fold dilution in DMSO. Additional 50× dilution was prepared in cell culture media for each dilution. 10 μL of diluted test compound was then added to a 384-well plate.
THP1-Dual™ KO-TREX1 cells were treated with 1 μM 5-aza-2′-deoxycytidine. THP1-Dual™ KO-TREX1 cells (50 μL) were added to each well of the 384-well plate containing test compound titration at 10,000 cells/well. Cells were incubated at 37° C., 5% CO2 in a humidified incubator for five days. On day five, 20 μL of cell supernatant was transferred to a 384-well, white-walled plate, followed by addition to each well of 50 μL of QUANTI-LUC solution containing stabilizer. Luminescence was detected on a plate reader according to manufacturer's instructions.
For certain compounds, the assay was run in a 96-well format, with the following modifications: • 190 μL, instead of 50 μL, of cells were added to each well, to provide 50,000 cells/well, instead of 10,000 cells/well, • Cells were incubated for 6 days, instead of 5 days, • 25 μL, instead of 20 μL, of cell supernatant was added to the white-walled plate for QUANT-LUC treatment; and • 25 μL, instead of 30 μL, of CellTiter-Glo was added to assess cell viability.
Percent inhibition of interferon was calculated using the following analysis: (Average DMSO-Sample)/(Average DMSO-Average 30 μM control reagent)*100. The control reagent for inhibition of interferon was a specific nucleoside reverse-transcriptase inhibitor with molecular weight <600 a.m.u. Percent induction of interferon was calculated using the following analysis: (Sample-Average DMSO)/(10 μM control reagent-Average DMSO)*100. The control reagent for induction of interferon was compound 8 (4′-ethynyl-2-chloro-2′-deoxyadenosine).

SMILES	Concentration at Max Induct. (lowest concentration at which the maximum-fold IFN induction was observed)	Maximum IFN Induction
C#C[C@]1(COP(=O)(N[C@@H](C)C(=O)OCC)Oc2ccccc2)O[C@@H](n2cnc3c(N)nc(Cl)nc32)C[C@@H]1O (stereo partly shown)	10 µM	>> (values from 1.50 to 2.00)
C#C[C@]1(COP(=O)(N[C@@H](C)C(=O)OC)Oc2ccc(Br)cc2)O[C@@H](n2cnc3c(N)nc(Cl)nc32)C[C@@H]1O (stereo partly shown)	–	>> (values from 1.50 to 2.00)
C#C[C@]1(COP(=O)(N[C@@H](C)C(=O)OCc2ccccc2)Oc2ccccc2)O[C@@H](n2cnc3c(N)nc(Cl)nc32)C[C@@H]1O (stereo partly shown)	–	>> (values from 1.50 to 2.00)
